Values of other authors, collected in article PMC3664191 (Bioorganic & medicinal chemistry letters, 2013).
Like-named read-outs stand apart in the source and are kept apart here.

Chains of the proteins cited; added tags and fusions are not shown. Lines headed by an entry give the natural chain unless they say otherwise; changes in a name come on top.
UniProt P49761: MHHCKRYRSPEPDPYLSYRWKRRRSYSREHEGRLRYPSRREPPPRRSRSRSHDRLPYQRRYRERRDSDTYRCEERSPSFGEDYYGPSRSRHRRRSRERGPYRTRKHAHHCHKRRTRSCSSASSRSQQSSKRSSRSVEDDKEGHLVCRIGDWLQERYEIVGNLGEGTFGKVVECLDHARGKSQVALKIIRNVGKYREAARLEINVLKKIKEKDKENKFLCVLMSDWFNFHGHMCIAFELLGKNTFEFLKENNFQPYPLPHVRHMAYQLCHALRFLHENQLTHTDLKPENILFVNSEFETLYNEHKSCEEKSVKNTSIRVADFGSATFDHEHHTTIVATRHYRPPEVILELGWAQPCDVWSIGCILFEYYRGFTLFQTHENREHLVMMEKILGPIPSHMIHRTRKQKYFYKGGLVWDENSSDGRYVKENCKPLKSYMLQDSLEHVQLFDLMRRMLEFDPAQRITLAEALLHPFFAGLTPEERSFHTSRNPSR
UniProt Q9HAZ1, whole entry, species assumed: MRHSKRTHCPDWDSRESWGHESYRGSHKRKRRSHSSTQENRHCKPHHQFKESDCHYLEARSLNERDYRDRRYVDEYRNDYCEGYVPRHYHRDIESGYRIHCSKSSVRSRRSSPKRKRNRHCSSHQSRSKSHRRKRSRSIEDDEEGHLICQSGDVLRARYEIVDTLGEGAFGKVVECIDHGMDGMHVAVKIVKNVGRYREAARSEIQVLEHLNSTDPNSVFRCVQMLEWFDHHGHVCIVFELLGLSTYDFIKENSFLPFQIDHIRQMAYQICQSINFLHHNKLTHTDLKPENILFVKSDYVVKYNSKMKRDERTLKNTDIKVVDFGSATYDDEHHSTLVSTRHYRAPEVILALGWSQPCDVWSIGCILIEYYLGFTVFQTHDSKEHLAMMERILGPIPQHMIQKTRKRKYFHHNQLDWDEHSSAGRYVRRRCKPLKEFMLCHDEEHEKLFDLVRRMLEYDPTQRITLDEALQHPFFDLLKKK
UniProt P49759: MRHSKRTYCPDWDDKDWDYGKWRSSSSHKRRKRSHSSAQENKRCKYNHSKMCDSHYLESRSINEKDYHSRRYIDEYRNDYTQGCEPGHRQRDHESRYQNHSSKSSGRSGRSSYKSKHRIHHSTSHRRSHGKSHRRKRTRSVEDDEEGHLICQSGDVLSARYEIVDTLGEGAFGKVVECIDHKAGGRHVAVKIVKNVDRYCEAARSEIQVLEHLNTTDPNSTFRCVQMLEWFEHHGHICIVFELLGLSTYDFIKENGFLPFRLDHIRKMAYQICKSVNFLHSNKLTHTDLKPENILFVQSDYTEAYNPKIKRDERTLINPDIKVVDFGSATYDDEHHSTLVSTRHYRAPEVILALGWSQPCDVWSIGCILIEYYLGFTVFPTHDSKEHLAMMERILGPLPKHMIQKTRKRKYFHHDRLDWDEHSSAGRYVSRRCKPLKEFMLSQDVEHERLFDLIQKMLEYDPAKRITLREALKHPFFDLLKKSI

Columns and labels:
Clk3 = Clk3 (Homo sapiens, UniProt P49761); settings: read-out: Clk3 IC50; cited from earlier work
Clk4 = Clk4 (Homo sapiens, UniProt Q9HAZ1); settings: read-out: Clk4 IC50, cited from earlier work
Clk1 = Clk1 (Homo sapiens, UniProt P49759); settings: read-out: Clk1 IC50; cited from earlier work

Row | Compound | IC50 (Clk3) | IC50 (Clk4; ref 15) | IC50 (Clk4; ref 39) | IC50 (Clk1)
1 | CCN1/C(=C/C(C)=O)Sc2ccc(OC)cc21 [TG003] | 3000 nM | 15 nM | 30 nM | 
2 | O=C1NC(Nc2ccccc2)=N/C1=C\c1ccc2c(c1)OCO2 [Leucettine L41] |  |  |  | 15 nM
